The values that follow come from US12479866B2, “Boron-containing rho kinase inhibitors” (Percipiad, Inc., priority 2019, dated 2025).

The chains behind the UniProt entries cited, without tags or fusion partners. Residues count along the entry.
UniProt O75116, whole entry: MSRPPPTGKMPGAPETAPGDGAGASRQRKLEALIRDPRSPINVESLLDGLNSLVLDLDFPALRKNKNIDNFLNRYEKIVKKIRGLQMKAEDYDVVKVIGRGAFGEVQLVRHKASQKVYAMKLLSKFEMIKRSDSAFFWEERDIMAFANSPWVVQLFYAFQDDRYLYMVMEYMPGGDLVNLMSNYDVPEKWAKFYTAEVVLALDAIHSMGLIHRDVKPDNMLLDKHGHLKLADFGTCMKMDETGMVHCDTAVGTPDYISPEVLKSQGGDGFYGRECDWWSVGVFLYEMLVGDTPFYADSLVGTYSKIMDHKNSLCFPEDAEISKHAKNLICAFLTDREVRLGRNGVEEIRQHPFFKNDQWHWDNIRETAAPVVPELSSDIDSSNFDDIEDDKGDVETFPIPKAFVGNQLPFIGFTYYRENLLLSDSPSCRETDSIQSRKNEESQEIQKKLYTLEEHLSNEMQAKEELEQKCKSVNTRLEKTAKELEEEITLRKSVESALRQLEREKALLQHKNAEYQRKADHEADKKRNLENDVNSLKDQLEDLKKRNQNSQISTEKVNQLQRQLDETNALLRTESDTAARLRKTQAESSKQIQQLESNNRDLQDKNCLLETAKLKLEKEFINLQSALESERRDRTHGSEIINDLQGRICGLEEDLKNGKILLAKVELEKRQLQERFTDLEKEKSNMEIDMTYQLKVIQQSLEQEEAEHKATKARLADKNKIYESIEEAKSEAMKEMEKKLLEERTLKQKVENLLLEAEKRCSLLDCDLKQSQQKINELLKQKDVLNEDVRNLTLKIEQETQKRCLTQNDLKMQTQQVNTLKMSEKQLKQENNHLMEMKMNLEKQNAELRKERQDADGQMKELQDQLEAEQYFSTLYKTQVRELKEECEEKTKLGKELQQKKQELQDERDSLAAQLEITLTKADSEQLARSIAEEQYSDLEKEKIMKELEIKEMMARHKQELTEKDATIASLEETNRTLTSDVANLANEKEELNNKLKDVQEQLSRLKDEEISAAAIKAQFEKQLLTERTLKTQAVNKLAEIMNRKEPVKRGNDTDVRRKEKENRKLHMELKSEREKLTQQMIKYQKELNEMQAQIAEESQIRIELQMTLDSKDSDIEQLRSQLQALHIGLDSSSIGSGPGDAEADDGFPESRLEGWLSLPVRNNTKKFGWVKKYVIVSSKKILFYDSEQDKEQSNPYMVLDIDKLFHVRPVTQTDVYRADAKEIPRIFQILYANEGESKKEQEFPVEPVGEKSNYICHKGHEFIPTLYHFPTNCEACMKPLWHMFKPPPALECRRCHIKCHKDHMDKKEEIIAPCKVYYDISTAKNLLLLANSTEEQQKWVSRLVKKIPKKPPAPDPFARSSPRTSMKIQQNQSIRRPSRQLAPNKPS
UniProt Q5VT25, whole entry: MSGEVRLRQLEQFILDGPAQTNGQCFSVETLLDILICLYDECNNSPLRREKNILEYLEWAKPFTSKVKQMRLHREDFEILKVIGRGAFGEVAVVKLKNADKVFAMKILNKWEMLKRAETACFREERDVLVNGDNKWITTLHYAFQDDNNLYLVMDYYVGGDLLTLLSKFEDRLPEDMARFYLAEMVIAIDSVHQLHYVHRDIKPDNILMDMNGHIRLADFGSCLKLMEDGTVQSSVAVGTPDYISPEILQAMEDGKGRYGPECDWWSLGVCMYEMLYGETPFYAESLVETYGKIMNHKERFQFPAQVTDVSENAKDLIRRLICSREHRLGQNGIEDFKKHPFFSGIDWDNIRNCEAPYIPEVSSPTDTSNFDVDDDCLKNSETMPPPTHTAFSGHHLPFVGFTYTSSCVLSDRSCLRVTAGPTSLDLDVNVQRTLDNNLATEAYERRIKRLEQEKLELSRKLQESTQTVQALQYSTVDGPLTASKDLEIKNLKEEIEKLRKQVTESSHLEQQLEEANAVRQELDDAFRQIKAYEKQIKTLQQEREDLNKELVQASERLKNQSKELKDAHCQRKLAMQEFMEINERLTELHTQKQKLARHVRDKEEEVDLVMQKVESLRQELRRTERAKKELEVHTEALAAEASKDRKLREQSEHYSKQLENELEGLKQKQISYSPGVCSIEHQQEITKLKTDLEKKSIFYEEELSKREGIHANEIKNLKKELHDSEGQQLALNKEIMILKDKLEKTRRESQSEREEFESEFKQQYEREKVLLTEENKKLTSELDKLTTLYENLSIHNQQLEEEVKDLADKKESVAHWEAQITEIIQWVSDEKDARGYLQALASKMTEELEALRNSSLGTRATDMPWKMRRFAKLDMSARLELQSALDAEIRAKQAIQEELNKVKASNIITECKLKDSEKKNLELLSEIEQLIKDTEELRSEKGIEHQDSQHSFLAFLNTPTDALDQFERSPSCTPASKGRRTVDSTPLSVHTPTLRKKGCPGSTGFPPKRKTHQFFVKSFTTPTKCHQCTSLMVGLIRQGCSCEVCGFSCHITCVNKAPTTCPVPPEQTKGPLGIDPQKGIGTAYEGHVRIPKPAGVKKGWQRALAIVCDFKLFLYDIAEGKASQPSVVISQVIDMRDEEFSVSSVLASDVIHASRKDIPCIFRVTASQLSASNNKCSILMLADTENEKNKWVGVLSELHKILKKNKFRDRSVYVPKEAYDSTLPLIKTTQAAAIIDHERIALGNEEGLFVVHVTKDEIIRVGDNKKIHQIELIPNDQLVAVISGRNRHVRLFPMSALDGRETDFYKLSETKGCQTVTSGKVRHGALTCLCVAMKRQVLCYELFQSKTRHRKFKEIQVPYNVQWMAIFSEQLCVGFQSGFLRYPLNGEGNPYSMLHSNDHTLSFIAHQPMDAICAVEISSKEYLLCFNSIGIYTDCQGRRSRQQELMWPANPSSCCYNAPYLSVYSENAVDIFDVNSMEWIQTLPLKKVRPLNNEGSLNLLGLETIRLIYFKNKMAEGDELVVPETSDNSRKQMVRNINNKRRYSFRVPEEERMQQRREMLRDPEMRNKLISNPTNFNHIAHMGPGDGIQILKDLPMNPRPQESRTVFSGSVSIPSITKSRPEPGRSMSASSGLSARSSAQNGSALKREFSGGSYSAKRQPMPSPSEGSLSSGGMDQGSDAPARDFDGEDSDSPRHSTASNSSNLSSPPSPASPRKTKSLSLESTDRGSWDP
UniProt Q13464, 2-1354 limits assumed: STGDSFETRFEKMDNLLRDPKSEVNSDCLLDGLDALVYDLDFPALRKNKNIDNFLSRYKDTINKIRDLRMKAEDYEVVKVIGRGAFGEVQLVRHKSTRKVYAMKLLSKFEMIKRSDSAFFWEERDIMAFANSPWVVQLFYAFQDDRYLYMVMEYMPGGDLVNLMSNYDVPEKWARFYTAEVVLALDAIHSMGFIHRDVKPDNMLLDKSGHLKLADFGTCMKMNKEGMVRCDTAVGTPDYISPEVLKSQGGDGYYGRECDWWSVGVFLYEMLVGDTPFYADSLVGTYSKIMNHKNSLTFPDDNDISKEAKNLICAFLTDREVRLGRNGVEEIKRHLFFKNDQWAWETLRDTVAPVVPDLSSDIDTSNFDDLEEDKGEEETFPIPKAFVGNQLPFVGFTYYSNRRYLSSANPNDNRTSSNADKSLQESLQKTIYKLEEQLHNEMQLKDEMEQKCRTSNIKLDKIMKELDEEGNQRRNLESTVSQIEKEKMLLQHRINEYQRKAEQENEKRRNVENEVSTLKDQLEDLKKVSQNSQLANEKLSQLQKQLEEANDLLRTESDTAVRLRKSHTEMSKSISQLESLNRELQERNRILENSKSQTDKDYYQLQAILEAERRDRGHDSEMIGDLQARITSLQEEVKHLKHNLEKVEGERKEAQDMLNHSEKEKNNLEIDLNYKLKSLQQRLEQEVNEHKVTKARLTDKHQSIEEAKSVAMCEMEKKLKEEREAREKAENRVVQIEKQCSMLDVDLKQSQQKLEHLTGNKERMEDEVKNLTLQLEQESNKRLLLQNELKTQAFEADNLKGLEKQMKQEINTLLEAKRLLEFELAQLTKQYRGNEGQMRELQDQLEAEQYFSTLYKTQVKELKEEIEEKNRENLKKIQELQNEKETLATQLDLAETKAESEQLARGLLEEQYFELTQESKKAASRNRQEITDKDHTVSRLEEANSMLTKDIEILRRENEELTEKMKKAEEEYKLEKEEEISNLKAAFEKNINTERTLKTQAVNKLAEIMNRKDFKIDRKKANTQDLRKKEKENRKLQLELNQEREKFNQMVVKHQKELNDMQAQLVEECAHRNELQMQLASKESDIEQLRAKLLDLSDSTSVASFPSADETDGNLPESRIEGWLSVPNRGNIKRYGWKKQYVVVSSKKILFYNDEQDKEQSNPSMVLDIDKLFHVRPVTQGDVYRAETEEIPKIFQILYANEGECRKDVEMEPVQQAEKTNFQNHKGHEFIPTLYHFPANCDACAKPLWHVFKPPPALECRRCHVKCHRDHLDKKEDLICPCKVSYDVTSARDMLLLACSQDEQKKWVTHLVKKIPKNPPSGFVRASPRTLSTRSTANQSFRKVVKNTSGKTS
UniProt Q04759, whole entry: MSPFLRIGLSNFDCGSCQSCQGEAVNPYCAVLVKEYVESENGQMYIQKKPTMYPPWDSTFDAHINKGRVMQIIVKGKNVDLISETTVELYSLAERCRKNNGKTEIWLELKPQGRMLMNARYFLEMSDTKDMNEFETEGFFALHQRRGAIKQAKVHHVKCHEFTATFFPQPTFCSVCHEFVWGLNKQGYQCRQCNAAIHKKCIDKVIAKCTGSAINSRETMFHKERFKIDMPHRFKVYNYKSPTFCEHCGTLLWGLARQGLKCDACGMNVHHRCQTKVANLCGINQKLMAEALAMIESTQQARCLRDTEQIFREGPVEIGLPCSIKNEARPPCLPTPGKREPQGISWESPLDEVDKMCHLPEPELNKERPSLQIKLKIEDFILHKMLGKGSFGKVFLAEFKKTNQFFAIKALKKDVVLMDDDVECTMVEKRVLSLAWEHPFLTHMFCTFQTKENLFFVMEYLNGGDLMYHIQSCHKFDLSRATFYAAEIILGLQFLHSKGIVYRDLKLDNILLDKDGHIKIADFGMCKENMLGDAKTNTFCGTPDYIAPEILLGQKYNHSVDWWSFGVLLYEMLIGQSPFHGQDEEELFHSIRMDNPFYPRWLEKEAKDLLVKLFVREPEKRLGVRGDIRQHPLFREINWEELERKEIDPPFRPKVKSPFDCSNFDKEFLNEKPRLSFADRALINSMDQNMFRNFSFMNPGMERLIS

In data set [1] the target is T1, ROCK2 (Homo sapiens (Human), UniProt O75116). The data set is described as follows: ROCK2 ADP-Glo kinase enzyme inhibition assay. Type of data set: biochemical. Conditions: read-out: ROCK2 IC50, Example 17, compounds I to XII. For orientation: In ADP-Glo the light output rises with the ADP produced.
The target of the next data set is MRCKa (Homo sapiens (Human), UniProt Q5VT25). The data set is described as follows: Radioisotope filter binding kinase assay. Type of data set: biochemical. Particulars: read-out: IC50 estimates, MRCKa, 10 uM ATP, tested form: 2HCl.
For another data set, the target named is PKA (Homo sapiens (Human), UniProt P17612). The data set is described as follows: Radioisotope filter binding kinase assay. The data set is classed as biochemical. Conditions: read-out: IC50 estimates, PKA, 10 uM ATP, tested form: 2HCl.
In a further data set the target is ROCK1 (Homo sapiens (Human), UniProt Q13464). The data set is described as follows: Radioisotope filter binding kinase assay. Type of data set: biochemical. Conditions: read-out: IC50 estimates, ROCK1, 10 uM ATP, tested form: 2HCl.
Another data set deals with PKCtheta (Homo sapiens (Human), UniProt Q04759). The data set is described as follows: Radioisotope filter binding kinase assay. Type of data set: biochemical. Particulars: read-out: IC50 estimates, PKCtheta, 10 uM ATP, tested form: 2HCl.
The target in data set [2] is T1, ROCK2. Nature of the data set: Radioisotope filter binding kinase assay. The data set is classed as biochemical. Conditions: read-out: IC50 estimates, ROCK2, 10 uM ATP, tested form: 2HCl.
For a further data set, the system named is hTM cells. Nature of the data set: hTM cell morphology changes (microscopy). The data set is classed as cell-based, human. Particulars: hTM cells, 30, 10, 3.33, or 1.11 μM, 24 hours; tested form: 2HCl.
The test system of data set [3] is New Zealand White rabbits. Nature of the data set: Normotensive rabbit IOP studies. Type of data set: in vivo. Particulars: tested form: 2HCl. The text has this:
For these efficacy studies methods were followed as described in (Jacob et al, A promising drug candidate for the treatment of glaucoma based on a P2Y6-receptor agonist, Purinergic Signal. 2018 September; 14 (3): 271-284). In all studies, male New Zealand White rabbits were acclimatized for one week before the study. Animals were given food and water ad libitum. Body weights of rabbits ranged from 2 to 3 kg. Animals were trained for the IOP measurement procedure during the acclimation period in order to reduce stress and obtaining more accurate measurements during the study. IOP measurements were taken using the Icare® TONOVET Plus tonometer. […] The technique of use of the […] tonometer in rabbits was described previously (Gloe et al, Validation of the Icare® TONOVET Plus Rebound Tonometer in Normal Rabbit Eyes, Exp Eye Res. 2019 August; 185:107698). IOP readings are obtained only when the tonometer is held an appropriate distance and in the correct plane relative to the ocular surface. Green light appears when the orientation is correct, thereby minimizing operator errors. Measurements were performed at the same time of day by the same person using the same instrument. Normotensive rabbit studies. […] In experiment 1 of the normotensive study, the effect of compound I.2HCl was measured at two doses of 1 mg/ml (2.34 mM) and 0.5 mg/ml (1.17 mM). Compound I.2HCl prepared in saline was applied to the right eye, as a once daily, 30 μL eye drop application in the morning on days 1, 2 and 3. IOP measurements were taken before test article addition (0 h) and at 1, 2, 4, 6, and 8 hours after addition on days 1 and 3. On day 2, only a 0 h reading was taken. This was done to minimize stress on the animals and to compare day 2-0 h and day 3-0 h readings without handling rabbits between applications. […] Twenty four hours after the instillation, IOP increased but still remained below normal levels. At 1 mg/ml dose, the IOP remained lower than normal levels on day 3; compound application on day 3 further reduced IOP. At 0.5 mg/ml dose, the IOP reached normal levels by day 3 but IOP reduced to same levels as 1 mg/ml dose after compound instillation. […] Similar to Experiment 1 of the normotensive study, compounds were applied once daily in the right eye in the morning on days 1, 2 and 3, whereas the left eye served as a control with application of Refresh Tears™. IOP measurements were taken at 0, 1, 2, 4, 6, and 8 hours on days 1 and 3, and 0 hours on day 2.

Data set [4] relates to New Zealand White rabbits. Nature of the data set: Acute eye irritation/corrosion, OECD Guideline 405. Conditions: 0.1 ml, 20 mg/ml in saline; tested form: 2HCl.
A further data set has as its system primary hTM cells. Nature of the data set: RealTime-Glo MT cell viability assay in hTM cells. The data set is classed as cell-based. Conditions: 30 μM, after 48 to 72 hours incubation, tested form: 2HCl. The text has this: Commercially available RealTime-Glo™ MT cell viability (Promega, catalog #G9712) and CellTox™ Green cytotoxicity (Promega, catalog #G8731) assays were used in assessing effect of compounds on primary hTM cell viability and cytotoxicity. The RealTime-Glo™ MT cell viability assay is a nonlytic, homogeneous, bioluminescent method that determines the number of viable cells in culture by measuring the reducing potential of cells and thus metabolism (MT). Viable cells reduce the proprietary pro-substrate to generate a substrate for NanoLuc® luciferase. This substrate diffuses from cells into the surrounding culture medium, where it is rapidly used by the NanoLuc® Enzyme to produce a luminescent signal. In a contrasting and complementary manner, CellTox™ Green cytotoxicity assay measures changes in membrane integrity that occur as a result of cell death. This assay system uses a proprietary asymmetric cyanine dye that is excluded from viable cells but preferentially stains the dead cells' DNA. […]
Human™ cells were cultured and maintained as described in Example 12. […] Light emitted by luciferase and fluorescence emitted by dye binding to DNA (excitation 485 nm and emission 525 nm) were measured at 24 h, 48 h, and 72 h after incubation using plate based luminescence and fluorescence plate readers.

For another data set, the system named is Phospho-MYPT1 Thr853. The data set is described as follows: Inhibition of MYPT1 phosphorylation in human trabecular meshwork (hTM) cells, western blot. Particulars: 10 μM to 0.04 μM, fifteen hours, tested form: 2HCl.

Bounds are passed on as bounds.

By IC50 is commonly meant the concentration at which inhibition is half-maximal.

Regarding `Cc1ccc(C(CN)C(=O)Nc2ccc3cnccc3c2)cc1B1OC(C)(C)C(C)(C)O1` (stereo not drawn), the IC50 at ROCK2 [1] (tested form: 2HCl) came out at 0.008 µM.

Take `CC1(C)OB(c2ccc(C(CN)C(=O)Nc3ccc4cnccc4c3)cc2)OC1(C)C` (racemic): the IC50 on ROCK2 [1] (tested form: 2HCl) came to 0.034 µM.

With `Cc1ccc(C(CN)C(=O)Nc2ccc3cnccc3c2)cc1B1OC(C)(c2ccccc2)C(C)(c2ccccc2)O1` (stereo not drawn), the IC50 on ROCK2 [1] (tested form: 2TFA) is 0.022 µM.

Regarding `CC1(c2ccccc2)OB(c2ccc(C(CN)C(=O)Nc3ccc4cnccc4c3)cc2)OC1(C)c1ccccc1` (stereo not drawn), the IC50 at ROCK2 [1] (tested form: 2HCl) is 0.056 µM.

Take `NCC(C(=O)Nc1ccc2cnccc2c1)c1ccc(B(O)O)cc1F` (racemic): on ROCK2 [1] (tested form: 2HCl), the IC50 is 0.058 µM.

`COc1ccc(B2OC(C)(C)C(C)(C)O2)cc1C(CN)C(=O)Nc1ccc2cnccc2c1` (racemic): the IC50 at ROCK2 [1] (tested form: 2HCl) worked out at 0.638 µM.

As for `COc1ccc(B(O)O)cc1C(CN)C(=O)Nc1ccc2cnccc2c1` (racemic), the IC50 at ROCK2 [1] (tested form: 2HCl) worked out at 0.217 µM.

For `Cc1ccc(C(CN)C(=O)Nc2ccc3cnccc3c2)cc1B(O)O` (racemic), the IC50 on ROCK2 [1] (tested form: 2HCl) was 0.008 µM.

`NCC(C(=O)Nc1ccc2cnccc2c1)c1cccc(B(O)O)c1` (racemic): the 50% inhibitory concentration (IC50) was 0.018 µM on ROCK2 [1] (tested form: 2HCl); greater than 10 µM at MRCKa; 0.006 µM at PKA; 0.004 µM at ROCK1; 0.817 µM on PKCtheta; 0.002 µM on ROCK2 [2]. In the data set on hTM cells, the cellular morphological changes result was “beginning to show cell contraction”. Besides, the “IOP level on day 3” value in [3] (experiment 1, 0.5 mg/ml dose) was “reached normal levels by day 3”; in data set [3] (experiment 1, 1 mg/ml dose), “remained lower than normal levels on day 3”. In addition, the “Effect on IOP” value in [3] (experiment 1, 1 mg/ml (2.34 mM) and 0.5 mg/ml (1.17 mM) in saline, once daily 30 μL eye drop) is “significantly reduced IOP with 2 hours after the instillation on day 1”; in data set [3] (experiment 2, 0.83 mM in 0.5% carboxymethylcellulose (Refresh Tears), once daily) it was “reduced IOP significantly within 2 hours after application on day 1”. In addition, the IOP reduction in data set [3] (experiment 1, both doses (1 mg/ml and 0.5 mg/ml)) turned out to be 35%. In data set [3] (experiment 2, 0.83 mM), the “IOP effect compared to the other compounds” value is on record as “much more pronounced”. In addition, the “clinical signs of toxicity, morbidity and mortality” value in [4] was “No treatment-related adverse effects were noticed”. The compound also gave a reduction in viability with primary hTM cells of 35%.

For `NCC(C(=O)Nc1ccc2cnccc2c1)c1cc(F)cc(B(O)O)c1` (racemic), the IC50 on ROCK2 [1] (tested form: 2HCl) is 0.027 µM.

Turning to `Cc1cc(C(CN)C(=O)Nc2ccc3cnccc3c2)ccc1B(O)O` (racemic), at ROCK2 [1] (tested form: 2HCl), the IC50 amounted to 0.047 µM. The “Inhibition of MYPT1 phosphorylation at lower concentrations, compared to other compounds” value in the data set on Phospho-MYPT1 Thr853 is recorded as “less effective at lower concentrations in inhibiting MYPT1 phosphorylation”.

For `COc1ccc(C(CN)C(=O)Nc2ccc3cnccc3c2)cc1B(O)O` (racemic), at ROCK2 [1] (tested form: 2HCl), the IC50 amounted to 0.043 µM.
